Test results published in ChEMBL document CHEMBL1153815, “Mapping the ribonucleolytic active site of bovine seminal ribonuclease. The binding of pyrimidinyl phosphonucleotide inhibitors” (Eur J Med Chem, 2009).

Target: T1, Seminal ribonuclease (Bos taurus, UniProt P00669)
T1 sequence (P00669 whole entry): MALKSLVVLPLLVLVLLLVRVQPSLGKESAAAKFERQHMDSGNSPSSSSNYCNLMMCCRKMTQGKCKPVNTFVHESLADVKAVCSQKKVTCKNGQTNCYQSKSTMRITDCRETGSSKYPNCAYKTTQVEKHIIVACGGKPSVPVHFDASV
Assay: Inhibition of bovine seminal ribonuclease assessed as enzyme activity by spectrophotometric method at pH 6

## O=c1ccn([C@@H]2O[C@H](COP(=O)(O)OP(=O)(O)O)[C@@H](O)[C@H]2O)c(=O)[nH]1 [URIDINE_DIPHOSPHATE]
  Ki: 1050 µM
